1 molecule from publication PMC6695191, “Antifungal compounds from Streptomyces associated with attine ants also inhibit Leishmania donovani” (PLoS Neglected Tropical Diseases, 2019) can be followed below.

Some results are limits rather than exact numbers.

This series is described as follows: Selectivity assay on THP-1 macrophages (Alamar Blue). It counts as cell-based. The note with it: human, 120 h incubation, mean ± SD, n = 2 biological replicates. The protocol:
Leishmania donovani axenic cultures (strain MHOM/ET/67/HU3) were maintained in M199 medium (pH 7.4) supplemented with 10% heat-inactivated fetal calf serum (FCS) and grown at 28°C [22].
After incubation for 72 hours (5% CO2, 37°C), medium was aspirated, compounds were added in serial dilutions (100 μL) and the plates were incubated for 120 h. All plates included negative controls and doxorubicin as a positive control. Following incubation, 10 μL of Alamar Blue was added to each well and then the plates were incubated for 3 hours. […] Growth inhibition was expressed as a percentage of the fluorescence of the negative control wells. IC50 values were determined as described above for the promastigote and amastigote assays.
For orientation: Resazurin is reduced to fluorescent resorufin, in cell work by metabolically active cells.

The term CC50 denotes the concentration at which the toxic effect on the cells reaches its halfway point. Low values mean harm at low concentration, high ones better tolerance by the cells. Turning to `C/C=C(\C)[C@H](O)[C@H](C)/C=C(C)/C=C/C/C(C)=C/Cc1nc(OC)cc(O)c1C` [Compound 1, Mer-A2026B], the CC50 at 120 h is more than 64 µM.
